From PubChem BioAssay AID800 (PCMD, 2007)
Only a part is listed here, and it is no random draw. Some structures show a salt or complex split into parts, the way the source records it. The source made the active and inactive calls. Rule as the data show it: active = inhibition above about 40%; inactive = the rest.

Protein sequences, listed by entry. Tags and fused reporters are not part of them. Residues count along the entry.
UniProt P00748, 20-372 limits assumed: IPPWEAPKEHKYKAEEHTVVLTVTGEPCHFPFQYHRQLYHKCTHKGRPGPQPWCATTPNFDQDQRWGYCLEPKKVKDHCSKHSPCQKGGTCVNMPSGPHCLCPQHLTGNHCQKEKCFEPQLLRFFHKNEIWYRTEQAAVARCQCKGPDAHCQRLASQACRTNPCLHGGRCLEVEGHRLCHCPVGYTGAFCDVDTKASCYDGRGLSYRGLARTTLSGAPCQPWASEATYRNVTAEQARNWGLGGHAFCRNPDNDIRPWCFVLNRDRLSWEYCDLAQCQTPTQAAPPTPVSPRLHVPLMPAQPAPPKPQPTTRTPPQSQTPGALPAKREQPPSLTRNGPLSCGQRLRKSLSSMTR
UniProt P00748, 373-615 limits assumed: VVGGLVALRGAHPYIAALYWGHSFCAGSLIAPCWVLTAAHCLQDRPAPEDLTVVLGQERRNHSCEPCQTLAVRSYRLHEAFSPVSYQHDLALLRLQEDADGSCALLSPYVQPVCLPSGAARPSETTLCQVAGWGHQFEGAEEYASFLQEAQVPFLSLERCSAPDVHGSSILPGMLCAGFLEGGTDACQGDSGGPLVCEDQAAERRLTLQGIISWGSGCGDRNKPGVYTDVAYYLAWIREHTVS

molecular target: Coagulation factor XII (Homo sapiens) (UniProt P00748); test: coagulation factor XIIa activity inhibition – biochemical, 1536-well, primary screen (AID 800); conditions: purified FXIIa, Boc-QGR-AMC fluorogenic substrate, 2 h; at 5 µM; hits give high values;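 also: 0% = enzyme with no compound and 100% = blank without enzyme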

SMILES	inhibition
CCN(CC)CC(O)COC(=O)C(O)(c1ccccc1)C1CCCCC1 (stereo not drawn)	inactive: 5.71%
COc1ccc(OP(C)(=O)Nc2ccc(Br)cc2)cc1 (stereo not drawn)	inactive: 7.74%
CP(=O)(Oc1ccccc1)N1CCOC1=O (stereo not drawn)	inactive: 22.1%
CCc1ccc(OP(C)(=O)Nc2cccnc2)cc1 (stereo not drawn)	inactive: 0.46%
O=C(OCCCN1CCCC1)C(O)(c1ccccc1)C1CCCCC1 (stereo not drawn)	inactive: 3.49%
CP(=O)(Nc1ccc(Cl)cc1)Oc1ccc(F)cc1 (stereo not drawn)	inactive: 17.3%
COc1ccccc1OP(C)(=O)Nc1ccccc1Br (stereo not drawn)	inactive: -5.89%
CC(C)(C)c1ccc(OP(C)(=O)O)cc1	inactive: 5.37%
CN(C)C(=O)c1c([N+](=O)[O-])cc([N+](=O)[O-])cc1[N+](=O)[O-]	inactive: 8.72%
CP(=O)(OC12CC3CC(CC(C3)C1)C2)OC12CC3CC(CC(C3)C1)C2	inactive: 4.66%
CCOC(=O)c1ccc(NP(C)(=O)Oc2ccc(Cl)cc2)cc1 (stereo not drawn)	inactive: 11.4%
Cc1cc(C)cc(OP(C)(=O)Nc2cccc(C(F)(F)F)c2)c1 (stereo not drawn)	inactive: 6.83%
COc1ccc(OP(C)(=O)Nc2ccccc2Br)cc1 (stereo not drawn)	inactive: 13.7%
COc1ccccc1OP(C)(=O)Nc1ccc(C)c(C)c1 (stereo not drawn)	inactive: 10.7%
Cc1nc2ccc3ccccc3c2o1.O=[N+]([O-])c1cc([N+](=O)[O-])c(O)c([N+](=O)[O-])c1	inactive: -6.47%
CP(=O)(Nc1ccc(Cl)cc1Cl)Oc1ccccc1 (stereo not drawn)	inactive: 6.89%
CP(=O)(OCCOc1ccccc1)OCCOc1ccccc1	inactive: 10.5%
COc1ccccc1OP(C)(=O)Nc1ccc(Br)cc1 (stereo not drawn)	inactive: 1.04%
CN(C)CCOC(=O)C(O)(c1ccccc1)C1CCCC1 (stereo not drawn)	inactive: 0.61%
COc1ccc(OP(C)(=O)Nc2ccccn2)cc1 (stereo not drawn)	inactive: 23.4%
Cc1c(NP(C)(=O)Oc2ccc(C(C)C)cc2)c(=O)n(-c2ccccc2)n1C (stereo not drawn)	inactive: -5.21%

SMILES	inhibition
O=[N+]([O-])c1cc([N+](=O)[O-])c(Nc2ccccn2)c([N+](=O)[O-])c1	inactive: 5.57%
CCc1ccc(OP(C)(=O)O)cc1	inactive: 8.69%
CP(=O)(Nc1ccccn1)Oc1ccccc1 (stereo not drawn)	inactive: 20.4%
COc1ccccc1OP(C)(=O)Nc1ccc(C)cc1C (stereo not drawn)	inactive: -6.77%
CC(C)c1ccc(OP(C)(=O)Nc2ccc(SC(F)(F)F)cc2)cc1 (stereo not drawn)	inactive: 8.47%
CP(=O)(Nc1ccccc1F)Oc1ccccc1 (stereo not drawn)	inactive: -14%
O=C(OCCN1CCN(CCOCc2ccccc2)CC1)C(O)(c1ccccc1)c1ccccc1	inactive: 12.8%
O=C(OC1CN2CCC1CC2)c1ccc([N+](=O)[O-])cc1 (stereo not drawn)	inactive: 6.77%
COc1ccc2c(c1O)-c1c(O)c(OC)cc3c1[C@H](C2)[N+](C)(C)CC3.O=[N+]([O-])c1cc([N+](=O)[O-])c([O-])c([N+](=O)[O-])c1[O-]	inactive: 10.8%
COc1ccc(OP(C)(=O)Nc2ccc(SC(F)(F)F)cc2)cc1 (stereo not drawn)	inactive: 0.52%
CCOC(=O)c1ccc(NP(C)(=O)Oc2ccc(F)cc2)cc1 (stereo not drawn)	inactive: -5.8%
CCN(CC)CCCOC(=O)C(O)(c1ccccc1)C1CCCCC1 (stereo not drawn)	inactive: 6.19%
CCCCCOc1ccc(NP(C)(=O)Oc2ccc(Cl)cc2Cl)cc1 (stereo not drawn)	inactive: 5.9%
CP(=O)(Nc1ccccc1)Oc1ccc(F)cc1 (stereo not drawn)	inactive: 13.8%
COc1ccc(OP(C)(=O)Nc2cccc(Br)c2)cc1 (stereo not drawn)	inactive: 14.6%
COc1ccc(NP(C)(=O)Oc2ccccc2OC)cc1 (stereo not drawn)	inactive: 6.97%
CN(C)CCOC(=O)C(O)(c1ccccc1)C1CCCCC1 (stereo not drawn)	inactive: 14.9%
Cc1cc(-c2cccc3ccccc23)c(C)cn1.O=[N+]([O-])c1cc([N+](=O)[O-])c(O)c([N+](=O)[O-])c1	inactive: 3.96%
O=[N+]([O-])c1cc([N+](=O)[O-])c(NCC2CCS(=O)(=O)C2)c([N+](=O)[O-])c1 (stereo not drawn)	inactive: 10.4%
O=[N+]([O-])c1ccc(OP2(=O)COCCO2)cc1 (stereo not drawn)	inactive: 7.19%
CP(=O)(Nc1ccc(SC(F)(F)F)cc1)Oc1ccc(F)cc1 (stereo not drawn)	inactive: 7.79%

SMILES	inhibition
CCOP(C)(=S)SCC(=O)NC(C)(CC)C(=O)O (stereo not drawn)	inactive: -9.03%
CP(=O)(Nc1ccc2c(c1)OCCO2)Oc1ccccc1 (stereo not drawn)	inactive: 15.8%
Cc1ccccc1NP(C)(=O)Nc1ccccc1C	inactive: 3.91%
O=[N+]([O-])c1cc([N+](=O)[O-])c(-n2nnc3ccccc32)c([N+](=O)[O-])c1	inactive: 11.9%
Cc1nc2ccc3ccccc3c2s1.O=[N+]([O-])c1cc([N+](=O)[O-])c(O)c([N+](=O)[O-])c1	inactive: 19.5%
O=[N+]([O-])c1cc([N+](=O)[O-])c(Nc2nnnn2CCO)c([N+](=O)[O-])c1	inactive: 3.76%
CCOC(=O)C(CC)C1=NC(C)(C)Cc2ccccc21.O=[N+]([O-])c1cc([N+](=O)[O-])c(O)c([N+](=O)[O-])c1 (stereo not drawn)	inactive: 5.15%
CN1CCCCC1COC(=O)C1(O)c2ccccc2CCc2ccccc21 (stereo not drawn)	inactive: 3.29%
COc1ccccc1OP(C)(=O)Nc1c(C)cccc1C (stereo not drawn)	inactive: -14.2%
CCCOc1ccc(NP(C)(=O)Oc2ccc(Cl)cc2)cc1 (stereo not drawn)	inactive: 1.1%
CP(=O)(Nc1ccc(SC(F)(F)F)cc1)Oc1ccccc1 (stereo not drawn)	inactive: -0.02%
O=C(O)c1cccc(Nc2c([N+](=O)[O-])cc([N+](=O)[O-])cc2[N+](=O)[O-])c1	inactive: 2.94%
CC1=NCCc2c1[nH]c1ccccc21.O=[N+]([O-])c1cc([N+](=O)[O-])c(O)c([N+](=O)[O-])c1	inactive: 2.37%
COc1ccccc1OP(C)(=O)Nc1cccc(Br)c1 (stereo not drawn)	inactive: 12.9%
Cc1cc(C)cc(OP(C)(=O)Nc2ccc(C)cc2C)c1 (stereo not drawn)	inactive: 10.1%
CCOC(=O)c1ccc(NP(C)(=O)Oc2cc(C)cc(C)c2)cc1 (stereo not drawn)	inactive: 2.65%
Cc1cc(C)cc(OP(C)(=O)Nc2ccccn2)c1 (stereo not drawn)	inactive: 2.21%
CP(=O)(Nc1cccc(Br)c1)Oc1ccccc1 (stereo not drawn)	inactive: 10.6%
Cc1ccc(C)c(NP(C)(=O)Oc2ccccc2)c1 (stereo not drawn)	inactive: 16.9%
CCN(CC)CCCOC(=O)C(O)(c1ccccc1)c1ccccc1	inactive: 9.78%
CC(C)(C)c1ccc(OP(C)(=O)Nc2ccc(SC(F)(F)F)cc2)cc1 (stereo not drawn)	inactive: 16.4%

SMILES	inhibition
Cc1cccc(C)c1OP(C)(N)=O (stereo not drawn)	inactive: 4.03%
O=[N+]([O-])c1ccc2c(c1)C=Nc1ccccc1O2	inactive: 6.46%
CCOC(=O)c1ccc(NP(C)(=O)Oc2ccccc2)cc1 (stereo not drawn)	inactive: 6.12%
COc1ccccc1OP(C)(=O)Nc1ccc(C)cc1 (stereo not drawn)	inactive: 22.8%
Cc1ccc(NP(C)(=O)Oc2ccccc2)c(C)c1 (stereo not drawn)	inactive: 3.06%
COc1ccccc1OP(C)(=O)Nc1cc(Cl)ccc1C (stereo not drawn)	inactive: 0.5%
COc1ccc(OP(C)(=O)Nc2cccc(F)c2)cc1 (stereo not drawn)	inactive: 10.9%
Cc1cc(C)cc(OP(C)(N)=O)c1 (stereo not drawn)	inactive: 12%
CP(=S)(Nn1cnnc1)Oc1ccccc1 (stereo not drawn)	inactive: 14.6%
COc1ccccc1OP(C)(=O)Nc1ccccc1 (stereo not drawn)	inactive: -10.1%
CP(=O)(Nc1ccccc1Br)Oc1ccccc1 (stereo not drawn)	inactive: 10.6%
CP(=O)(Nc1ccc(SC(F)(F)F)cc1)Oc1ccc(Cl)cc1 (stereo not drawn)	inactive: 11.8%
Cc1cccc(C)c1OP(C)(=O)Nc1ccc(SC(F)(F)F)cc1 (stereo not drawn)	inactive: 5.76%
CP(=O)(Oc1ccccc1)OC(c1ccccc1)C(F)(F)F (stereo not drawn)	inactive: 10.8%
CP(=O)(NC(=O)Nc1ccccc1)Oc1ccccc1 (stereo not drawn)	inactive: 18%
CCc1ccc(OP(C)(=O)N2CCN(c3ccc([N+](=O)[O-])cc3)CC2)cc1 (stereo not drawn)	inactive: 4.77%
Cc1cc(C)cc(OP(C)(=O)Nc2ccc(SC(F)(F)F)cc2)c1 (stereo not drawn)	inactive: 6.97%
CCOP(C)(=S)SCC(=O)NC(C)C(=O)O (stereo not drawn)	inactive: 11.7%
CCOC(=O)c1ccc(NP(C)(=O)Oc2ccc(OC)cc2)cc1 (stereo not drawn)	inactive: 3.3%
CP(=O)(Nc1ccccn1)Oc1ccc(Cl)cc1 (stereo not drawn)	inactive: -16.3%
